This experiment concerns the target mouse sEH (Mus musculus, UniProt P34914). Kind of experiment: sEH inhibition, spectrometric assay with racemic 4-nitrophenyl-trans-2,3-epoxy-3-phenylpropyl carbonate as substrate. The format is biochemical. The following applies: Table 12, amino acid derivatives of 632-Tyr, unpurified reaction solutions.

Amino acid sequences for entries named in this document (tags omitted).
UniProt P34914, whole entry: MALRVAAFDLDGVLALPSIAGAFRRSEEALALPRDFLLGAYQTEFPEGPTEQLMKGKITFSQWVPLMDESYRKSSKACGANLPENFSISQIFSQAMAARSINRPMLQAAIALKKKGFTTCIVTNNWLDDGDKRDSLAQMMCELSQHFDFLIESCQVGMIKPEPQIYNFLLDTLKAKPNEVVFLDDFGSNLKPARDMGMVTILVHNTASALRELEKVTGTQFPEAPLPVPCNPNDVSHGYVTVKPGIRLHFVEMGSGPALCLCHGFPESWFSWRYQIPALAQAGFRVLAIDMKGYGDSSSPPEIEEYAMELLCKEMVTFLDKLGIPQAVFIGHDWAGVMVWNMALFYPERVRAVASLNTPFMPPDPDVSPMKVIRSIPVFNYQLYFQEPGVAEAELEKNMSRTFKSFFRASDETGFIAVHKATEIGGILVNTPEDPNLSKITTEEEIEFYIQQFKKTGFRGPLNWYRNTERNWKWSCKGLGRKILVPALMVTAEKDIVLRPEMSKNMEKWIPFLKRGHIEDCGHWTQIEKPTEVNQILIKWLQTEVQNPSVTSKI

Broadly, the IC50 is the midpoint of a concentration-inhibition curve. In general, IC90 refers to the point of the concentration-response curve where the effect stands at 90%. Turning to `O=C(CCCNC(=O)NC1CCCCC1)NC(Cc1ccc(O)cc1)C(=O)O` (centres unmarked) [Compound 625-Tyr, 2-[4-(3-Cyclohexyl-ureido)-butyrylamino]-3-(4-hydroxy-phenyl)-propionic acid], where the note is “read-out: Mouse sEH IC50”, the IC50 was found to be 0.5 µM. In addition, the 90% effect concentration (IC90) (read-out: Mouse sEH IC90) was found to be 30 µM.

These data come from US8476043B2.
